The list is not random: actives were taken first. Their share in the collection is about 16%.
DT40 TDP1 no CPT: qHTS for Inhibitors of human tyrosyl-DNA phosphodiesterase 1 (TDP1): qHTS in cells in absence of CPT; AID 686978, 2013; hit rate 15% among 420,000; Potency, µM (top dose mostly 46.2 µM), for inactives: top-dose activity change, negative = growth inhibition, hits mostly inhibitors; DT40 Tdp1-/- hTDP1 cells, no CPT, ATP luminescence, 48 h; note: potency is the fitted concentration of half-maximal effect; % is set by controls: 0 for no effect and ±100 for the full control effect; nearly all actives have a fitted effect of over 55% in size
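DT40 Tdp1-/-;hTDP1 cells, no CPT (DMSO vehicle only), 400 cells/well; compounds pin-transferred; ≥48 hr, 37 °C; CellTiter-Glo 30 min RT dark, luminescence read.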
miR-21 FLuc: miR-21 reporter, rising signal; HeLa miR-21 FLuc reporter, luciferase, 48 h; Potency, µM (titrated, usually from 38.3 µM), without a hit: top-dose reporter change, positive = more light; AID 2288; 340,000 tested, under 10 active; active = well fitted rising curve with a large enough effect; inconclusive = small, poorly fitted or top-dose-only effect; inactive = no such curve, though single readings can be large or run the other way;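 further: % of control where 0% means no effect; miR-21 action dims this reporter so a rising signal means less miR-21 action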
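HeLa cells endogenously expressing miR-21, stably carrying CMV-driven firefly luciferase with a downstream miR-21 binding site, 2000 cells/well. Titrations up to approximately 40 uM, 48 hours; luciferase luminescence read.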
uPA generation: cell surface uPA generation inhibition; cell surface uPA generation assay, qHTS; Potency, µM (series often up to 38.3 µM), without a hit: top-dose activity change, negative = inhibition, usual class: inhibitors; hit rate 0.31% among 330,000; AID 540303; active = well fitted inhibition curve with a large enough effect; inconclusive = small, poorly fitted or top-dose-only effect; inactive = no such curve, though single readings can be large or run the other way; tested in mouse RAW 264.7 cells; note: potency is the fitted concentration of half-maximal effect; % is set by controls: 0 for no effect and ±100 for the full control effect; nearly all actives have a fitted effect of over 55% in size
DT40 TDP1 CPT: DT40-hTDP1 cell growth loss with CPT; hit rate 12% among 420,000; chicken DT40 Tdp1-/-;hTDP1 cells + 20 nM CPT, ATP luminescence, 48 h; Potency, µM (top dose mostly 46.2 µM), for the others: top-dose activity change, negative = growth inhibition, actives largely listed as inhibitors; note: potency is the fitted concentration of half-maximal effect; % is set by controls: 0 for no effect and ±100 for the full control effect; nearly all actives have a fitted effect of over 55% in size
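Chicken DT40 Tdp1-/- cells stably complemented with human TDP1 were seeded at 400 cells/well in medium containing 20 nM camptothecin, exposed to pin-transferred compounds, and grown at 37 °C for at least 48 hr. Viability was read as ATP luminescence.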
TDP1 block: blocks human tyrosyl-DNA phosphodiesterase 1. recombinant TDP1, AlphaScreen DNA substrate cleavage. hit rate 0.28% among 350,000. AID 485290. Potency, µM (top dose mostly 130 µM), for inactives: at the top dose activity change, negative = inhibition, hits mostly inhibitors; note: potency is the fitted concentration of half-maximal effect; % is set by controls: 0 for no effect and ±100 for the full control effect; nearly all actives have a fitted effect of over 40% in size
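Signal: AlphaScreen proximity between streptavidin donor and anti-FITC acceptor beads on intact substrate. Reaction: Tdp1 1 nM, substrate 15 nM final, 5 min RT after 15 min compound preincubation.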
Active calls of the source: *; ? = inconclusive; / = no result given. Unless noted, calls come from the whole dose curve; as a rule, active = well fitted curve in the direction sought with a large enough effect; inconclusive = small, poorly fitted or top-dose-only effect, or another doubt; inactive = no such curve, though single readings can be large; an effect the other way counts as inactive or inconclusive.

structure	DT40 TDP1 CPT	TDP1 block	uPA generation	miR-21 FLuc	DT40 TDP1 no CPT
Cn1cnc(C(=O)NCc2ccc(CNC(=O)OC(C)(C)C)cc2)c1C(=O)NCc1ccc(CNC(=O)OC(C)(C)C)cc1	20.6µM*	-0.8%	6.9%	/	?
CC(C)(C)OC(=O)NCc1ccc(NC(=O)c2nc[nH]c2C(=O)NCCCNC(=O)c2[nH]cnc2C(=O)Nc2ccc(CNC(=O)OC(C)(C)C)cc2)cc1	13µM*	-2.9%	-2.9%	/	25.9µM*
Cc1nc(SCC(=O)c2cc3ccccc3oc2=O)c(C#N)c(-c2ccccc2)c1C(=O)Nc1ccccc1	?	7.9%	3.0%	-4.8%	18.4µM*
COc1ccc(-c2c(C#N)c(SCC(=O)c3cc4ccccc4oc3=O)nc(C)c2C(=O)Nc2ccccc2)cc1	?	0.6%	-3.0%	-4.3%	?
COc1cc(-c2nnc(-c3ccncc3)o2)ccc1OCc1ccccc1	?	1.0%	/	-8.8%	9.2µM*
COc1cc(-c2nnc(-c3cccnc3)o2)cc(OC)c1OC	?	6.3%	-3.2%	1.0%	-3.5%
CCOc1ccc(-c2nnc(-c3cccnc3)o2)cc1OCC	?	0.0%	-1.5%	-35.4%	16.4µM*
COc1ccc(-c2nnc(-c3cccnc3)o2)cc1OC	11.6µM*	7.1%	/	-58.2%	?
CCOc1ccc(-c2nnc(-c3ccncc3)o2)cc1OCC	-8.6%	-5.1%	-1.5%	-2.2%	?
COc1ccc(C(=O)COC(=O)c2cc(=O)c3ccccc3o2)cc1	-22.2%	-1.2%	2.2%	/	-10.3%
Cc1ccc(NC(=O)c2sc3nc(-c4ccc(F)cc4)cn3c2C)c(C)c1	-20.7%	5.3%	/	-10.3%	?
NNC(=O)c1[nH]c2ccc(Br)cc2c1-c1ccccc1	?	0.0%	-15.9%	25.9%	23.1µM*
CCN(CC)C(=S)Sc1c(-c2ccccc2)c2cc(Cl)ccc2[nH]c1=O	2.31µM*	5.9%	8.9%	-4.6%	?
O=C(O)CSc1c(-c2ccccc2)c2cc(Cl)ccc2[nH]c1=O	-3.6%	-1.8%	0.2%	0.8%	-4.0%
NNC(=O)c1[nH]c2ccc(Cl)cc2c1-c1ccccc1	?	5.1%	-5.9%	28.5%	20.6µM*
S=C(NCCCN1CCOCC1)Nc1ccc(Cl)cc1	-0.6%	3.4%	-2.5%	0.6%	5.0%
Cc1ccc(S(=O)(=O)N[C@H](C(=O)N2CCC(C(=O)N[C@@H](CCC(N)=O)C(=O)O)CC2)C(C)C)cc1	-4.4%	/	1.9%	0.9%	-0.5%
CCOC(=O)c1cc(-c2ccccc2)n(CCCC(=O)Nc2ccccc2C)c1C	?	2.8%	/	12.3%	23.1µM*
CCOC(=O)c1cc(-c2ccccc2)n(CCC(=O)Nc2ccc(C(F)(F)F)cc2)c1C	7.31µM*	6.6%	/	?	7.31µM*
CCCn1c(C)cc(/C=C(\C#N)C(=O)OCC(=O)Nc2ccc(OC)c(Cl)c2)c1C	-27.2%	-2.7%	1.3%	-23.0%	11.6µM*
CCOC(=O)c1cc(-c2ccccc2)n(CCCC(=O)Nc2ccc(CC)cc2)c1C	?	-0.9%	/	13.6%	?
CCOC(=O)c1cc(-c2ccccc2)n(CCCC(=O)Nc2ccc(C)cc2Cl)c1C	?	-4.7%	/	-1.7%	?
CCCn1c(C)cc(/C=C(\C#N)C(=O)OCC(=O)NC(=O)NCC)c1C	-12.1%	-4.5%	3.8%	-20.5%	-27.2%
CCOC(=O)c1cc(-c2ccccc2)n(CCC(=O)Nc2ccc(OC)c(Cl)c2)c1C	16.4µM*	3.8%	/	15.4%	16.4µM*
CC(O)c1ccc(Oc2cnccn2)cc1 (configuration not stated)	-6.6%	/	-0.8%	-0.5%	22.9%
CCOC(=O)c1cc(-c2ccccc2)n(CCCC(=O)Nc2ccc(C)c(Cl)c2)c1C	?	2.8%	/	16.3%	23.1µM*
CC(=O)c1cc(-c2ccccc2)n(CCC(=O)Nc2ccc(C(C)C)cc2)c1C	8.2µM*	6.6%	/	?	5.8µM*
CCCNC(=O)Cn1cnc2sc(C(=O)Nc3cc(OC)c(OC)c(OC)c3)c(C)c2c1=O	10.6%	5.3%	/	-0.1%	8.9%
CCN(CC)C(=O)Cn1cnc2sc(C(=O)Nc3cc(OC)c(OC)c(OC)c3)c(C)c2c1=O	?	1.1%	-3.8%	-3.4%	11.6µM*
COCCNC(=O)c1sc2ncn(CC(=O)N3CCCCC3)c(=O)c2c1C	?	1.1%	-0.3%	-6.7%	25.9µM*
Cc1c(C(=O)Nc2c(F)cccc2F)sc2ncn(CC(=O)N3CCCCC3)c(=O)c12	-8.8%	0.5%	4.3%	2.1%	6.6%
COCCNC(=O)c1sc2ncn(CC(=O)Nc3ccc(C)c(Cl)c3)c(=O)c2c1C	?	0.0%	-1.7%	4.8%	13µM*

6 compounds picked at random from those above:
structure	DT40 TDP1 CPT	TDP1 block	uPA generation	miR-21 FLuc	DT40 TDP1 no CPT
COc1cc(-c2nnc(-c3cccnc3)o2)cc(OC)c1OC	?	6.3%	-3.2%	1.0%	-3.5%
CCN(CC)C(=S)Sc1c(-c2ccccc2)c2cc(Cl)ccc2[nH]c1=O	2.31µM*	5.9%	8.9%	-4.6%	?
Cc1nc(SCC(=O)c2cc3ccccc3oc2=O)c(C#N)c(-c2ccccc2)c1C(=O)Nc1ccccc1	?	7.9%	3.0%	-4.8%	18.4µM*
CCCn1c(C)cc(/C=C(\C#N)C(=O)OCC(=O)NC(=O)NCC)c1C	-12.1%	-4.5%	3.8%	-20.5%	-27.2%
NNC(=O)c1[nH]c2ccc(Cl)cc2c1-c1ccccc1	?	5.1%	-5.9%	28.5%	20.6µM*
CCOC(=O)c1cc(-c2ccccc2)n(CCCC(=O)Nc2ccccc2C)c1C	?	2.8%	/	12.3%	23.1µM*

More results follow.
structure	DT40 TDP1 CPT	TDP1 block	uPA generation	miR-21 FLuc	DT40 TDP1 no CPT
COC(=O)CNC(=O)c1sc2ncn(CC(=O)Nc3ccc(C)c(Cl)c3)c(=O)c2c1C	?	2.6%	-1.4%	5.1%	-23.3%
Cc1ccccc1CN1CCc2nnc(C(C)NC(=O)C3CCN(C)CC3)n2CC1 (configuration not stated)	-1.5%	/	/	/	2.3%
O=C(c1cccc(F)c1)N1C2C=CC(C2)C1(C(F)(F)F)C(F)(F)F (configuration not stated)	-0.9%	0.0%	2.8%	1.4%	-15.6%
CC(C)(C)OC(=O)NCCCC(CCCNC(=O)OC(C)(C)C)C(=O)O	-24.0%	2.6%	5.2%	-2.2%	1.0%
CCCN1C(=S)SC(C)(C)C1/[N+]([O-])=C/c1ccc(S(=O)(=O)NC)cc1 (configuration not stated)	3.7%	-1.2%	-0.9%	0.6%	-1.2%
CCOc1ccccc1CNC(=O)C1CCCN(c2nc3ccccc3o2)C1 (configuration not stated)	/	-1.0%	/	-3.8%	/
CCOc1ccccc1CNC(=O)C1CCN(c2nc3ccccc3o2)CC1	18.4µM*	3.1%	-15.9%	-2.9%	?
CCC1CN(C(=O)N2CCC(C(=O)NCc3ccc(OC)cc3OC)CC2)c2cc(C)ccc2O1 (configuration not stated)	?	3.9%	/	23.9%	18.4µM*
COc1ccc(CNC(=O)C2CCN(C(=O)N3CC(C)Oc4ccc(C)cc43)CC2)cc1 (configuration not stated)	?	1.3%	/	7.6%	?
CCOc1ccccc1CNC(=O)C1CCN(C(=O)N2CC(CC)Oc3ccc(C)cc32)CC1 (configuration not stated)	13µM*	5.2%	/	7.1%	18.4µM*
CCOc1ccccc1CNC(=O)C1CCN(C(=O)N2CC(C)Oc3ccc(C)cc32)CC1 (configuration not stated)	20.6µM*	/	-13.9%	19.2%	?
CNc1nc(SC)nc2ccccc12	-3.9%	5.4%	-8.7%	1.1%	?
CSc1nc(N(C)NC(=O)c2ccccc2)c2ccccc2n1	0.581µM*	2.6%	-13.6%	23.6%	0.517µM*

Source: PubChem
